Among the data in patent US20040072753A1, “Peptides for use in the treatment of alzheimer's disease” (priority 2000, published 2004) are Km values, retold here.

The series deals with Aβ 1-40. The series can be described thus: purified protein, by the assay type. Particulars: pH 7.4; 30.0 °C.

What is called Km is the concentration of substrate that gives half-maximal velocity. “recombinant p34-cdc2/cyclin B1 (Homo sapiens)”: the Michaelis-Menten constant (Km) amounted to 5.2 µM.
